Legend:
[1] = system: Salmonella typhimurium strains, TA98, TA100, TA1535 and TA1537; assay: Ames fluctuation test; details: 10^−4 to 6.10^−7 M; with and without rat liver S9
Method: Example 3.1. ADME-Tox: Genetic Toxicity. The Ames fluctuation test is a widely used bacterial assay for the identification of compounds that can produce gene mutations. Compound 1 was assayed between 10^−4 and 6.10^−7 M in four Salmonella typhimurium strains, TA98, TA100, TA1535 and TA1537, with and without metabolic activation by rat liver S9 (Eurofins Discovery).

[2] = system: BV2 cells; assay: Nitric oxide (NO) production in LPS-exposed BV2 cells (DAF); details: LPS 24 h
Method: FIG. 1. Compound 1 reduces the inflammatory response against LPS in vitro. (A) Nitric oxide (NO) production in BV2 cells detected by DAF 24 h after LPS exposure and normalized by cell viability measured by MTT (n=9). (B) qRT-PCR of TNFα (n=9) in BV2 cells after 24 h LPS exposure. Sulforaphane (Sfn) was used as a positive control.
Nitric oxide (NO) detection in the mouse microglial cell line BV2 was evaluated by using the fluorescent probe 4-amino-5-methylamino-2′,7′-difluorofluorescein diacetate (DAF) with excitation and emission wavelengths of 495 nm of 515 nm, respectively according to the manufacturer's instructions. Fluorescence results were divided by cell viability (measured as MTT reduction) and normalized to basal condition. Results were normalized respect to basal condition.

COc1ccc2c(c1)CC(c1c[nH]c3ccc(OC)cc13)N2 (stereo not shown)
cytotoxicity in Ames fluctuation test [1]: did not exhibit cytotoxicity | genotoxicity (Ames fluctuation test) [1]: not genotoxic | nitric oxide (NO) production at 10 μM ([2]; 10 μM): reduced to basal levels | nitric oxide (NO) production, reduction ([2]; concentration series): concentration-dependent reduction of nitric oxide (NO)
